In patent publication US20200392251A1 (University of California, published 2020):

T1: Aspergillus fumigatus autophagic serine protease 2 (Alp2) (Aspergillus fumigatus, UniProt P87184 136-495)
T1 construct: range 136-495; Produced active in E. coli periplasm; biotinylated for BLI
T1 sequence: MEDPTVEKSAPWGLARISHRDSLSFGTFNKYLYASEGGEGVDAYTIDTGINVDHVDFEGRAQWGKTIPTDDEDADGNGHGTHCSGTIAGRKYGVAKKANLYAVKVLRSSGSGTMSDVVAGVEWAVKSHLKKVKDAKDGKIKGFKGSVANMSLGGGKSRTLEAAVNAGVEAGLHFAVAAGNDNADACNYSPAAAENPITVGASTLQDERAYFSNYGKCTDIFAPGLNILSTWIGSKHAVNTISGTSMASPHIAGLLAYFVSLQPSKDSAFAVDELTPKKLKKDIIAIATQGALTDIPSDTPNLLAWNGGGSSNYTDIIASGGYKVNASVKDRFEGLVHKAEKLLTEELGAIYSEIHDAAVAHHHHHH


Experiments:
[1] = target: T1, Aspergillus fumigatus autophagic serine …; assay: FRET peptide inhibition assay; KI=IC50/(S/Km+1)
[2] = target: T1, Aspergillus fumigatus autophagic serine …; assay: biolayer interferometry; biotinylated protease on streptavidin sensor, Fab in solution

Binder | Ki [1] [nM] | Kd [2] [nM]
anti-Alp2 Fab A4A1 (Fab, V domains shown, Fab from a synthetic human Fab library, produced in E. coli periplasm; also called Clone A4A1) VH: EVQLVESGGGLVQPGGSLRLSCAASGFNISSYYIHWVRQAPGKGLEWVASIYSYSSYTYYADSVKGRFTISADTSKNTAYLQMNSLRAGDTAVYYCARFGSWSYAIDYWGQGTLVTVSS VL: DIQMTQSPSSLSASVGDRVTITCRASQSVSSAVAWYQQKPGKAPKLLIYSASSLYSGVPSRFSGSRSGTDFTLTISSLQPEDFATYYCQQASHLITFGQGTKVEIKR | 13 | 11
anti-Alp2 Fab A4A2 (Fab, V domains shown, Fab from a synthetic human Fab library, produced in E. coli periplasm; also called Clone A4A2) VH: EVQLVESGGGLVQPGGSLRLSCAASGFNLSSSSMHWVRQAPGKGLEWVASIYPSYSYTYYADSVKGRFTISADTSKNTAYLQMNSLRAEDTAVYYCARKTSDQYLLVGGSFFKLRDCCYVMDYWGQGTLVTVSS VL: DIQMTQSPSSLSASVGDRVTITCRASQSVSSAVAWYQQKPGKAPKLLIYSASSLYSGVPSRFSGSRSGTDFTLTISSLQPEDFATYYCQQASHLITFGQGTKVEIKR | 220 | 110
